ChEMBL document CHEMBL5614367, “Hydroxamic acid hybrids: Histone deacetylase inhibitors with anticancer therapeutic potency” (Eur J Med Chem, 2023)

Target: T1, Protein deacetylase HDAC6 (Homo sapiens) (UniProt Q9UBN7)
T1 sequence (whole entry): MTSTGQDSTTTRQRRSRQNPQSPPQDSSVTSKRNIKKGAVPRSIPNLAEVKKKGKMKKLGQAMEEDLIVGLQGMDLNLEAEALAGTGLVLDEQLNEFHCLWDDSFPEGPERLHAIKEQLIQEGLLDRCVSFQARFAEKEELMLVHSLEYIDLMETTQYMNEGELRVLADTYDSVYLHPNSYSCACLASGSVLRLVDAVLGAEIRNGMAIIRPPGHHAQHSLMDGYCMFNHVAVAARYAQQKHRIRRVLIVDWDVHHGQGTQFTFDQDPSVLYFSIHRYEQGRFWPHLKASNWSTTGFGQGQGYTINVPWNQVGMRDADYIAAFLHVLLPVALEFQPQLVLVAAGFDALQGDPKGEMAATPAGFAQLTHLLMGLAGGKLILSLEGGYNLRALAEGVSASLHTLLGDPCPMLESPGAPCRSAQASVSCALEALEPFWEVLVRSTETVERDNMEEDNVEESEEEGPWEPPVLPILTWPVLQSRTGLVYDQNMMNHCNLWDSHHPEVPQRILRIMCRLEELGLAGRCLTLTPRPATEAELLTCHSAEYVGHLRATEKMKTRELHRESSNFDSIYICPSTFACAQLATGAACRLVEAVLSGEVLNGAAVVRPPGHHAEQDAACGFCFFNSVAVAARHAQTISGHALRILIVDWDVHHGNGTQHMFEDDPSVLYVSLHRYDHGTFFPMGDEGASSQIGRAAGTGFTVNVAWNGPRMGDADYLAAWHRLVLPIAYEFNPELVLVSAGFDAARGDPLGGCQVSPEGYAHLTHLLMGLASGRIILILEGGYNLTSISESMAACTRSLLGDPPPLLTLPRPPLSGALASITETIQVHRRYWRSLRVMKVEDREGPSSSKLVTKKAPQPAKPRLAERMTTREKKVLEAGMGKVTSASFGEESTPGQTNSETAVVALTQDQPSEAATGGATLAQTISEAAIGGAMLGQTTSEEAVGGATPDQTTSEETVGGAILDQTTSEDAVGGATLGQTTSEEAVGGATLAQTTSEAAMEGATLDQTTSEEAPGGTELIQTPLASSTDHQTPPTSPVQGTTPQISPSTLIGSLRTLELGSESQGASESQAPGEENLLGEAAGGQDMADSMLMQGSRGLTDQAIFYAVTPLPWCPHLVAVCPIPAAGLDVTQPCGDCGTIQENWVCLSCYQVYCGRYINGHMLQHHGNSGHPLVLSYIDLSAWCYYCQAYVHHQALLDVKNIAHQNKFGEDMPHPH
Assay: Potency index, ratio of vorinostat IC50 to test compound IC50 for inhibition of HDAC6 (unknown origin) using tert-butyl (S)-(6-acetamido- 1-((4-methyl-2-oxo-2H-chromen-7-yl)amino)-1-oxohexan-2-yl) carbamate (Boc-Lys(acetyl)-AMC) as substrate pretreated for 5 mins followed by substrate addition and measured after 30 mins by fluorescence based microplate reader analysis
Conditions: time 35.0 min

- Ratio IC50: 6.5
SMILES: O=C(CCCCCCC(=O)Nc1nc2ccc(OC(F)(F)F)cc2s1)NO
